Test results taken from US8987335B2, “Substituted (E)-N′-(1-phenylethylidene)benzohydrazide analogs as histone demethylase inhibitors” (University of Utah Research Foundation, priority 2011, dated 2015).

Legend:
Format in all cases: cell-based
T-47D cells = assay: Cell Viability Assay (ATPlite), T-47D; conditions: Homo sapiens, T47D, 96-hours of incubation, read-out: Cell Growth, IC50
PC-3 = assay: Cell Viability Assay (ATPlite), PC-3; conditions: Homo sapiens, 96-hours of incubation, read-out: Cell Growth, IC50
Method: (§1) Cancer cell lines were obtained from ATCC. Cells were cultured according to the procedures provided. In addition to the supplements indicated in Table 4, media were also supplemented with 1% penicillin/streptomycin (100 IU/mL penicillin and 100 μg/mL streptomycin). Cells were cultured at 37° C. and 5% CO2. ATCC is the American Type Culture Collection (Manassas, Va.).
(§2) Cell viability was determined using ATPlite™ Luminescence Assay System (PerkinElmer Inc., Waltham, Mass.) using the various cell-lines described above and in Table 4. Briefly, cells were seeded in 96-well plates and then treated with different concentrations of inhibitor (0.1% final DMSO concentration). After 96-hours of incubation, ATPlite detection reagent was added directly to the culture well. Luminescence was read 5 minutes later on an Envision microplate reader.

MDA-MB-231 = assay: Cell Viability Assay (ATPlite), MDA-MB-231; conditions: Homo sapiens, 96-hours of incubation, read-out: Cell Growth, IC50
Method: as §1, §2

| SMILES | IC50 (T-47D cells) [nM] | IC50 (PC-3) [nM] | IC50 (MDA-MB-231) [nM] |
| --- | --- | --- | --- |
| O=C(N/N=C/c1ccccc1O)c1ccc(O)cc1 [Compound 1] | 2700 | – | – |
| O=C(N/N=C/c1cc(Cl)ccc1O)c1ccc(O)cc1 [Compound 2] | 821 | – | – |
| C/C(=N\NC(=O)c1ccc(O)cc1)c1ccccc1O [Compound 3] | 971 | – | – |
| O=C(N/N=C/c1ccccc1O)c1ccc(Br)cc1 [Compound 4] | 96 | – | – |
| O=C(N/N=C/c1ccccc1O)c1cccc(Cl)c1 [Compound 5] | 615 | – | – |
| C/C(=N\NC(=O)c1cccc(S(=O)(=O)N2CCOCC2)c1)c1cc(Cl)ccc1O [Compound 12, (E)-N′-(1-(5-chloro-2-hydroxyphenyl)ethylidene)-3-(morpholinosulfonyl)benzohydrazide] | – | 2160 | 1040 |
